Literature values, collected in article PMC3400126 (Journal of Medicinal Chemistry, 2012).

Experiments:
[1] = molecular target: T1, GCase N370S in spleen homogenate (Homo sapiens, UniProt P04062, N409S); settings: 4MU-Glc substrate; cited from earlier work
T1 sequence (P04062 40-536 N409S): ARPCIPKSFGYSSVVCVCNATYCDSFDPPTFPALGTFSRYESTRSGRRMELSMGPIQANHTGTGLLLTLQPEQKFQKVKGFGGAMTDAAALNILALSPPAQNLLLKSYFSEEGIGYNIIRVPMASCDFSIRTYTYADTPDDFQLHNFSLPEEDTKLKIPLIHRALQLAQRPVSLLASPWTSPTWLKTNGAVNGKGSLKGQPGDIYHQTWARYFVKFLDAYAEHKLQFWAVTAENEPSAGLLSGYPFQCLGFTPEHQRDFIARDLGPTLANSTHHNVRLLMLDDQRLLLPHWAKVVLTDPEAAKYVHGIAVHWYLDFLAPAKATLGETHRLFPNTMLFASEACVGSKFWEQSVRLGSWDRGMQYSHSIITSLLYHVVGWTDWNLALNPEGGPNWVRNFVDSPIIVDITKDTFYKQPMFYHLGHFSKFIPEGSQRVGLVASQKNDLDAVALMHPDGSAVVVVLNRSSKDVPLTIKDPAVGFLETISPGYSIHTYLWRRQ

[2] = molecular target: Purified GCase wt; settings: read-out: Purified GCase wt IC50; 4MU-Glc substrate; cited from earlier work

Compound	Spleen Homogenate N370S IC50 [1]	IC50 [2] [µM]
COc1ccc(Cl)cc1Nc1nc(NCCO)nc(N2CCCC2)n1 [Compound 7]	completely inactive	–
CCc1nnc(NC(=O)c2ccc(NS(=O)(=O)c3ccccc3)cc2)s1 [Compound 9]	completely inactive	0.1
